Data: patent US5135849A, “In-vitro methods for identifying compositions which are agonists and antagonists of androgens” (priority 1989, dated 1992)

Sequences of proteins named here, by UniProt entry; tags and fusion partners are left off.
UniProt P10275, whole entry T878A: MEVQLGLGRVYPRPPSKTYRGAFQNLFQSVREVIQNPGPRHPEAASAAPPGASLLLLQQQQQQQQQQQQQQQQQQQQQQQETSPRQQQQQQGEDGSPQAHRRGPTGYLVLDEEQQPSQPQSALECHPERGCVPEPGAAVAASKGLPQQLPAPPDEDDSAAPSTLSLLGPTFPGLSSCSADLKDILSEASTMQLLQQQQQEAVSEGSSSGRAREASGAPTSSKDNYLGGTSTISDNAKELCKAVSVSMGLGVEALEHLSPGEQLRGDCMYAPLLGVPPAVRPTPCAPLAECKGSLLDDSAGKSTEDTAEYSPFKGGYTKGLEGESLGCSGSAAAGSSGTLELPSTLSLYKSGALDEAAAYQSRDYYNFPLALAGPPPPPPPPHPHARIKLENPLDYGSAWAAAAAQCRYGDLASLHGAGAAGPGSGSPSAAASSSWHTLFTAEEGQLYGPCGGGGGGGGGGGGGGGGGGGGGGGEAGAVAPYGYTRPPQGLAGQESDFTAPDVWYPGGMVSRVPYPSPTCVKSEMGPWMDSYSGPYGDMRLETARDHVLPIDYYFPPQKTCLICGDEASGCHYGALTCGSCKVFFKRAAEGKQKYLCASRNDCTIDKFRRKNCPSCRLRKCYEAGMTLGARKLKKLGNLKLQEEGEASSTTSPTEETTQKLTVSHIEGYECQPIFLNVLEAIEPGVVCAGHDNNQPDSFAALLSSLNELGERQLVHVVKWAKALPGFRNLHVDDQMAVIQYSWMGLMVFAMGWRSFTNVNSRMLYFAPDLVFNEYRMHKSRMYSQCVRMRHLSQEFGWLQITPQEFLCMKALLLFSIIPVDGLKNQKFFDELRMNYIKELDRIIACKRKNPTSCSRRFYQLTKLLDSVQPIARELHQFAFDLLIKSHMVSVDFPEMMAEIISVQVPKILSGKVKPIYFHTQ

Molecular target: androgen receptor (Homo sapiens, UniProt P10275, T878A)
Assay: Competition for androgen receptors with 3H-testosterone in LNCaP cytosol-nuclear extracts (RBA)

In the case of `C[C@]1(O)CC[C@H]2[C@@H]3CCC4=CC(=O)CCC4=C3C=C[C@@]21C` [R1881, 17β-hydroxy-17α-methyl-estra-4,9,11-trien-3-one], the “RBA (relative binding affinity to the androgen receptor)” value is reported as 200.
